“Also recorded” adds a separate entry of the source.
Legend:
[1] = target: T1, BCL-xL/ABT-263 complex (Homo sapiens, UniProt Q07817); test: Biolayer interferometry, Fab binding to BCL-xL in the presence of ABT-263; conditions: compared with the BCL-xL/ABT-737 complex
T1 construct: C-terminally truncated BCL-xL (residues 2-215) with an N-terminal AviTag; made in house; host or cells: E. coli BL21(DE3), pMCSG7 vector
Experimental: (§1) Biolayer interferometery data were measured using an Octet RED384 instrument (ForteBio). Biotinylated BCL-xL was immobilized on a Streptavidin (SA) biosensor using a 200 nM solution. Serial dilutions of Fabs in kinetics buffer (PBS, pH 7.4, 0.05% Tween-20, 0.2% BSA, 10 μM biotin) with small molecule (1 μM), peptide (5 μM), or vehicle (0.05% DMSO) were used as analyte. Affinity (KD) and kinetic parameters (kon and koff) were calculated from a global fit (1:1) of the data using the Octet RED384 software.
(§2) We hypothesized that the exquisite selectivity of our Fabs was the result of direct interactions of the Fab CDRs with parts of ABT-737. We reasoned that if this were the case, the Fab would bind less potently to other BCL-xL-ligand complexes. ABT-263 is an analog that binds with similar potency to the same conformation of BCL-xL as ABT-737 (RMSD=0.8) (FIG. 2A and FIG. 2B) (Tse, et al., Cancer Res., 68, 3421-3428 (2008)). To test our hypothesis, we measured the ability of AZ1, AZ2, and AZ3 to discriminate between ABT-737, ABT-263, and the native-ligand-derived Bak-peptide (Sattler, et al., Science, 275: 983986 (1997)) bound BCL-xL (FIG. 2C).

Sequences of proteins named here, by UniProt entry; tags and fusion partners are left off. Residues count along the entry.
UniProt Q07817, 2-215: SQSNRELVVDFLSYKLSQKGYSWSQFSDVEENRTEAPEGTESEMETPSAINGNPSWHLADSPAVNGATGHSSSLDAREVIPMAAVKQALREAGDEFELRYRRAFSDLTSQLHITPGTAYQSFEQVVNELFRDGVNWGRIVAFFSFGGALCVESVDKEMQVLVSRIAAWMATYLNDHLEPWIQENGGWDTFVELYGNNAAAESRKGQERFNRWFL

[2] = target: T2, BCL-xL/Bak peptide complex (Homo sapiens, UniProt Q07817); test: Biolayer interferometry, Fab binding to BCL-xL in the presence of Bak peptide; conditions: peptide 5 μM
T2 construct: C-terminally truncated BCL-xL (residues 2-215) with an N-terminal AviTag; made in house; host or cells: BCL-xL: E. coli BL21(DE3), pMCSG7; Bak peptide purchased (Anaspec AS-61616)
Experimental: as §1, §2

[3] = target: T3, BCL-xL (apo form) (Homo sapiens, UniProt Q07817); test: Biolayer interferometry, Fab binding to BCL-xL in the absence of ABT-737; conditions: DMSO only; concentrations up to 5000 nM of Fab
T3 construct: C-terminally truncated BCL-xL (residues 2-215) with an N-terminal AviTag; made in house; host or cells: E. coli BL21(DE3), pMCSG7 vector
Experimental: as §1

[4] = target: T4, BCL-xL/ABT-737 complex (Homo sapiens, UniProt Q07817); test: Biolayer interferometry, Fab binding to BCL-xL in the presence of ABT-737; conditions: for KOFF / KON: ABT-737 1 μM present (+); for binding to BCL-xL in the presence of ABT-737: biolayer interferometry, ABT-737 1 μM
T4 construct: C-terminally truncated BCL-xL (residues 2-215) with an N-terminal AviTag; made in house; host or cells: E. coli BL21(DE3), pMCSG7 vector
Experimental: as §1

Molecule | binding to the BCL-xL/ABT-263 complex [1] | binding to the BCL-xL/Bak-peptide complex [2] | binding to BCL-xL in the absence of ABT-737 [3] | KOFF [4] | KON [4] | binding to BCL-xL in the presence of ABT-737 [4] | selectivity for the ABT-737-bound form over DMSO only ([4]; compared with Fabs AZ1 and AZ3)
AZ3: Fab clone selected against Bcl-xL + ABT-737 complex (antibody) heavy: EISEVQLVESGGGLVQPGGSLRLSCAASGFNIYYSYMHWVRQAPGKGLEWVASISPYSSYTSYADSVKGRFTISADTSKNTAYLQMNSLRAEDTAVYYCARYGYSYYYYGALDYWGQGTLVTVSSASTKGPSVFPLAPSSKSTSGGTAALGCLVKDYFPEPVTVSWNSGALTSGVHTFPAVLQSSGLYSLSSVVTVPSSSLGTQTYICNVNHKPSNTKVDKKVEPKSCDKTHTGGSHHHHHH light: SDIQMTQSPSSLSASVGDRVTITCRASQSVSSAVAWYQQKPGKAPKLLIYSASSLYSGVPSRFSGSRSGTDFTLTISSLQPEDFATYYCQQGWSGPWLITFGQGTKVEIKRTVAAPSVFIFPPSDSQLKSGTASVVCLLNNFYPREAKVQWKVDNALQSGNSQESVTEQDSKDSTYSLSSTLTLSKADYEKHKVYACEVTHQGLSSPVTKSFNRGECGGSDYKDDDDK | dramatically weaker binding | no detectable binding | no detectable binding; also recorded: negligible binding | 20.9 10^−4 s^−1 | 2.2 10^5 M^−1s^−1 | potent binding | –
AZ1: Fab clone selected against Bcl-xL + ABT-737 complex (antibody) heavy: EISEVQLVESGGGLVQPGGSLRLSCAASGFNLSYSSMHWVRQAPGKGLEWVASISPYSSYTSYADSVKGRFTISADTSKNTAYLQMNSLRAEDTAVYYCARGWVGMDYWGQGTLVTVSSASTKGPSVFPLAPSSKSTSGGTAALGCLVKDYFPEPVTVSWNSGALTSGVHTFPAVLQSSGLYSLSSVVTVPSSSLGTQTYICNVNHKPSNTKVDKKVEPKSCDKTHTGGSHHHHHH light: SDIQMTQSPSSLSASVGDRVTITCRASQSVSSAVAWYQQKPGKAPKLLIYSASSLYSGVPSRFSGSRSGTDFTLTISSLQPEDFATYYCQQYYWGFPSLFTFGQGTKVEIKRTVAAPSVFIFPPSDSQLKSGTASVVCLLNNFYPREAKVQWKVDNALQSGNSQESVTEQDSKDSTYSLSSTLTLSKADYEKHKVYACEVTHQGLSSPVTKSFNRGECGGSDYKDDDDK | dramatically weaker binding | no detectable binding | no detectable binding; also recorded: no significant binding | 4.0 10^−4 s^−1 | 1.3 10^5 M^−1s^−1 | potent and reversible binding | –
AZ2: Fab clone selected against Bcl-xL + ABT-737 complex (antibody) heavy: EISEVQLVESGGGLVQPGGSLRLSCAASGFNIYSYYMHWVRQAPGKGLEWVAYISPYYSYTSYADSVKGRFTISADTSKNTAYLQMNSLRAEDTAVYYCARGYPWYGMDYWGQGTLVTVSSASTKGPSVFPLAPSSKSTSGGTAALGCLVKDYFPEPVTVSWNSGALTSGVHTFPAVLQSSGLYSLSSVVTVPSSSLGTQTYICNVNHKPSNTKVDKKVEPKSCDKTHTGGSHHHHHH light: SDIQMTQSPSSLSASVGDRVTITCRASQSVSSAVAWYQQKPGKAPKLLIYSASSLYSGVPSRFSGSRSGTDFTLTISSLQPEDFATYYCQQVSWAYPYLITFGQGTKVEIKRTVAAPSVFIFPPSDSQLKSGTASVVCLLNNFYPREAKVQWKVDNALQSGNSQESVTEQDSKDSTYSLSSTLTLSKADYEKHKVYACEVTHQGLSSPVTKSFNRGECGGSDYKDDDDK | dramatically weaker binding | no detectable binding | no detectable binding; also recorded: no significant binding | 2.6 10^−4 s^−1 | 1.1 10^5 M^−1s^−1 | potent and reversible binding | –
AZ4: Fab clone selected against Bcl-xL + ABT-737 complex (antibody) heavy: EISEVQLVESGGGLVQPGGSLRLSCAASGFNIYSSSIHWVRQAPGKGLEWVASIYPYYGYTYYADSVKGRFTISADTSKNTAYLQMNSLRAEDTAVYYCARSWWPYGMDYWGQGTLVTVSSASTKGPSVFPLAPSSKSTSGGTAALGCLVKDYFPEPVTVSWNSGALTSGVHTFPAVLQSSGLYSLSSVVTVPSSSLGTQTYICNVNHKPSNTKVDKKVEPKSCDKTHTGGSHHHHHH light: SDIQMTQSPSSLSASVGDRVTITCRASQSVSSAVAWYQQKPGKAPKLLIYSASSLYSGVPSRFSGSRSGTDFTLTISSLQPEDFATYYCQQVPAFPITFGQGTKVEIKRTVAAPSVFIFPPSDSQLKSGTASVVCLLNNFYPREAKVQWKVDNALQSGNSQESVTEQDSKDSTYSLSSTLTLSKADYEKHKVYACEVTHQGLSSPVTKSFNRGECGGSDYKDDDDK | – | – | – | – | – | less potently | less selectivity
